Target: Muscarinic acetylcholine receptor M1 (Homo sapiens, UniProt P11229)
Experiment: biochemical

Sequences of proteins named here, by UniProt entry; tags and fusion partners are left off. A change or cut given only in a name is not applied to a line headed by its entry.
UniProt P11229: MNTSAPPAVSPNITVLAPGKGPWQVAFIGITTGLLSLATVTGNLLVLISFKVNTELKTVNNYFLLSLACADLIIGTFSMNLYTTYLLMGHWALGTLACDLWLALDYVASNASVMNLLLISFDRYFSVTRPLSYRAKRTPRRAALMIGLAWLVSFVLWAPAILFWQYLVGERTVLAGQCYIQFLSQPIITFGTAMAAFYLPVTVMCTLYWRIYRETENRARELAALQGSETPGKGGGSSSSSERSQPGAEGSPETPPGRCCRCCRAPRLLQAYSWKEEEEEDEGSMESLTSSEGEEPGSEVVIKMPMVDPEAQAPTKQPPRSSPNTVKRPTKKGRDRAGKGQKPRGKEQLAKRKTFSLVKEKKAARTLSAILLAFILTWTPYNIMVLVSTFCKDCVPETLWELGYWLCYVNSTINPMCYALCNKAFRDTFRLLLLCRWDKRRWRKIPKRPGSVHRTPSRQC

In the case of `NC(=O)C(c1ccccc1)(c1ccccc1)[C@@H]1CCN(CCc2ccc3c(c2)CCO3)C1` [DARIFENACIN], the Ki is reported as 5.5 to 8.6 nM.
